# Assay results: PubChem BioAssay AID686949 (The Scripps Research Institute Molecular Screening Center, 2013)
# Sequences of proteins named here, by UniProt entry; tags and fusion partners are left off. A change or cut given only in a name is not applied to a line headed by its entry.
# UniProt P49862: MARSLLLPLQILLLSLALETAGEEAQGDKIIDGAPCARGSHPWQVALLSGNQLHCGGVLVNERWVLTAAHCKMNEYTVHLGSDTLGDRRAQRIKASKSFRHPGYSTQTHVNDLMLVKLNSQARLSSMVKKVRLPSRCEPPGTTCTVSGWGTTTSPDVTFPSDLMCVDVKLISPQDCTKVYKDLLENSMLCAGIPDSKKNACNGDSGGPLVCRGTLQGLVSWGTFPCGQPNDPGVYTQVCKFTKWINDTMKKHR
# The list shows a part of the results, in another mix than the full data. Activity calls are given as the source filed them.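 The calls were made as follows: active = activation, as change over the incubation, above the mean of all tested compounds plus 3 SD (cut at about 13% in these data); inactive = the rest.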
# Molecular target: Kallikrein-7 (Homo sapiens) (UniProt P49862)
# Experiment: activation of human kallikrein-7 proenzyme – biochemical, fluorescence intensity, triplicate, confirmation (AID 686949)
# Conditions: purified proKLK7, EDANS-DABCYL substrate fluorescence; at 7 µM; active compounds read high; scaled: vehicle 0, mature enzyme 100
row,Structure (SMILES),activation
1,Nc1cccc2ccc([As](=O)(O)O)cc12,active: 18.1%
